Among the data in PubChem BioAssay AID743398 (Broad Institute, 2014) are activation values, retold here.

Only a part is listed here, and it is no random draw. Activity calls are given as the source filed them. Cut-off read from the data, not from the text of the source: active = activation above about 30% (passing the limit was not always enough); inconclusive = no clear call, values can overlap the other calls.

This assay in a line: activation of beta-catenin signaling reporter – cell-based, plate reader, single point, primary screen (AID 743398).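 Note: 0% = neutral control wells and 100% = positive control wells.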 The conditions noted are these: Wnt/beta-catenin reporter cell assay, activator, at 9.35 µM, active compounds read high.
For the compound `CCOC(=O)Nc1cccc([As](=O)(O)O)c1`, the activation is inactive: 0.323%.

Take `O=[N+]([O-])c1ccc(Nc2ccc(Oc3ccc([N+](=O)[O-])cc3[N+](=O)[O-])cc2)c([N+](=O)[O-])c1`: the activation is inactive: -1.29%.

Take `Cc1cc(SC(NC=O)C(Cl)(Cl)Cl)ncn1` (configuration not stated): the activation is inactive: 0.805%.

`O=P(Nc1ccccn1)(c1cccc2ccccc12)c1cccc2ccccc12`: the activation was inactive: -13.8%.

For `CC1CCNP(=O)(N(CCCl)CCCl)O1` (configuration not stated), the activation was inactive: 2.2%.

In the case of `O=C(O)C(O)c1ccc(N(CCCl)CCCl)cc1` (configuration not stated), the activation is inactive: -7.66%.

For `CCOC(=O)Nc1ccc([As](=O)(O)O)c(O)c1`, the activation is inactive: -0.665%.

Regarding `CCCCOc1ccc(C(=O)NCC2(N3CCCCC3)CCCCC2)cc1OC`, the activation is inactive: -2.17%.

With `Cc1cc(SC(NC(=O)c2ccccc2)C(Cl)(Cl)Cl)nc(C(C)C)n1` (configuration not stated), the activation is inactive: 4.65%.

`COP(=O)(OC)N1CC1c1ccccc1` (configuration not stated): the activation was inactive: -0.671%.

For the compound `CCOC(=O)c1ccc(NC(=O)C(C)(CCl)SC)cc1` (configuration not stated), the activation is inactive: 0.924%.

Consider `O=C(OC1CN2CCC1CC2)c1cccc([N+](=O)[O-])c1` (configuration not stated), for which the activation was inactive: 19.3%.

Consider `CCC(C)N(CC(C)C)C(=S)SC(NC(C)=O)C(Cl)(Cl)Cl` (configuration not stated), for which the activation was inactive: -0.0625%.

Take `COP1(=S)c2c(C)nn(CCC#N)c2N=C(c2ccc(F)cc2)N1C` (configuration not stated): the activation is inactive: -3.14%.

With `COC(=O)C1(C)COP(=O)(N2CCCC2)OC1` (configuration not stated), the activation was inactive: -1.29%.

As to `O=C(COc1ccccc1)OC1CN2CCC1CC2` (configuration not stated), the activation was inactive: -0.964%.

On to `O=C(Nc1ccncc1[N+](=O)[O-])c1ccc([N+](=O)[O-])cc1[N+](=O)[O-]`, for which the activation is inactive: -0.625%.

With `O=C(O)C(=O)c1ccc(N(CCCl)CCCl)cc1`, the activation was inactive: -4.53%.

Consider `COc1ccc(N/C(=N/P(=O)(N2CCOCC2)N2CCOCC2)N2CCOCC2)cc1`, for which the activation is inactive: -0.909%.

Consider `O=[N+]([O-])c1cc(Oc2ccc([N+](=O)[O-])cc2C(F)(F)F)cc([N+](=O)[O-])c1`, for which the activation is inactive: -0.358%.

With `O=C(OC1CN2CCC1CC2)C12CC3CC(CC(C3)C1)C2` (configuration not stated), the activation was inactive: -0.451%.

As for `Cc1cc(=O)[nH]c(N[N+](=O)[O-])n1`, the activation was inactive: 1.35%.

For the compound `Cc1c2c(nc3ccccc13)SC(C(Cl)Cl)C2` (configuration not stated), the activation is inactive: -5.52%.

For `COc1ccc2nc(NP(=O)(c3ccccc3)c3ccccc3)sc2c1`, the activation was inactive: -5.36%.

Consider `COc1cc(I)ccc1[As](=O)(O)O`, for which the activation is inactive: -0.745%.

Turning to `O=P1(N(CCCl)CCCl)OCCCN1CCCl` (configuration not stated), the activation was inactive: -1.82%.

As to `O=P1(N(CCCl)CCCl)Nc2ccccc2N1`, the activation was active: 41.6%.

Regarding `COC(=O)C1(C)COP(=O)(N2CCCCCC2)OC1` (configuration not stated), the activation is inactive: 5.82%.

For `CC(C)c1ccc(OP(=O)(Nc2ccccn2)Oc2ccccc2F)cc1` (configuration not stated), the activation is inactive: -3.41%.

For `ClCCSc1nnc(-c2cccnc2)o1`, the activation was inactive: 12.4%.

As to `CC(C)NC(=O)NP(=O)(Oc1ccccc1)Oc1ccccc1`, the activation is inactive: 0.2%.

Consider `O=C(OC1CN2CCC1CC2)c1cccc2[nH]cnc12` (configuration not stated), for which the activation is inactive: 1.2%.

Take `O=[As](O)(c1ccc(O)cc1)c1ccccc1O`: the activation was inactive: 0.712%.

`C[As](=O)(O)c1cccc(C(=O)O)c1`: the activation is inactive: -1.09%.

Regarding `O=[N+]([O-])c1ccc(-c2cc([N+](=O)[O-])c(O)c([N+](=O)[O-])c2)cc1`, the activation is inactive: -0.003%.

For the compound `COc1cc(C(=O)NCC2(N3CCOCC3)CCCCC2)ccc1OCC(C)C`, the activation is inactive: 1.42%.

Turning to `Cc1ccc2nc3c(c(C)c2c1)CC(C(Cl)Cl)S3` (configuration not stated), the activation is inactive: 16.3%.

Regarding `Cc1ccc(OP(=O)(Nc2ccc([N+](=O)[O-])cn2)Oc2ccc(C)cc2)cc1`, the activation was inactive: -3.17%.

Turning to `[N-]=[N+]=NC1CCCCC1NC(=O)c1cc([N+](=O)[O-])cc([N+](=O)[O-])c1` (configuration not stated), the activation is inactive: 4.71%.

For the compound `NC(=O)Nc1ccc([As](=O)(O)O)cc1`, the activation was inactive: 1.79%.

Turning to `CN(C)C(=O)c1cc([N+](=O)[O-])cc2c1-c1c(cc([N+](=O)[O-])cc1[N+](=O)[O-])C2=O`, the activation is inactive: -20.1%.

Consider `CN(C(=O)Cc1ccc(Cl)c(Cl)c1)[C@H]1CC[C@@]2(CCCO2)C[C@@H]1N1CCCC1`, for which the activation was inactive: -4.89%.

Turning to `N#CCCN(C(=O)COC(=O)C(O)(c1ccccc1)c1ccccc1)c1ccc(F)cc1`, the activation was inactive: 2.28%.

With `CCOP1(=S)c2c(C)nn(CCC#N)c2N=C(c2ccc(F)cc2)N1C` (configuration not stated), the activation is inactive: -0.768%.

`CN(C(=O)Cc1ccccc1)[C@@H]1CC[C@]2(CCCO2)C[C@H]1N1CCCC1`: the activation was inactive: 29.1%.

In the case of `CCOP1(=S)c2c(C)nn(CCC#N)c2N=C(c2ccccc2F)N1C` (configuration not stated), the activation is inactive: -0.986%.

For `O=P(Nc1nccs1)(Oc1ccccc1)Oc1ccccc1`, the activation is inactive: -5.52%.

Regarding `O=C(O)COc1ccc([As](=O)(O)O)cc1[N+](=O)[O-]`, the activation is inactive: -0.891%.

On to `Nc1ccccc1[As](=O)(O)c1ccccc1`, for which the activation is inactive: 0.83%.

Take `CCCOP(=S)(Nc1nc(N)cc(=O)[nH]1)OCCC`: the activation was inactive: -3.75%.

As for `Nc1cccc2c([As](=O)(O)O)cccc12`, the activation was inactive: 1.38%.

With `Cc1ccc(NCCc2c([N+](=O)[O-])cc([N+](=O)[O-])cc2[N+](=O)[O-])cc1`, the activation is inactive: 9.62%.

`CCOP(=O)(Nc1cccc2ccccc12)OCC`: the activation is inactive: 0.608%.

With `O=[As](O)(O)c1cccnc1`, the activation was inactive: -0.158%.

For `COc1cc(C(=O)NCC2(N3CCOCC3)CCCCC2)cc(Cl)c1OC(C)C`, the activation was inactive: -3.28%.

As to `CS(=O)(=O)c1ccc(Cl)c(NC(=O)COC(=O)C(O)(c2ccccc2)c2ccccc2)c1`, the activation is inactive: -2.78%.

As for `O=C(OC1CN2CCC1CC2)c1ccc(Cl)cc1` (configuration not stated), the activation is inactive: -0.386%.

Regarding `Cc1cccc(OCC(=O)OC2CN3CCC2CC3)c1` (configuration not stated), the activation was inactive: 0.386%.

For `O=[As](O)(c1cccc(O)c1)c1cccc(O)c1`, the activation is inactive: -0.269%.

For `COc1ccccc1CNC(=O)COC(=O)C(O)(c1ccccc1)c1ccccc1`, the activation is inactive: -6.79%.

As to `CN(C(=O)Cc1ccc(Cl)c(Cl)c1)[C@@H]1CCCC[C@H]1N1CCCC1`, the activation is inactive: -12%.

For the compound `CC(C)/C=N\N=C(\N)N[N+](=O)[O-]`, the activation was inactive: -0.199%.
